The subject of one assay is Herceptin. As to the kind of experiment: Flow cytometry: binding of epitope tagged SAR-expressing cells to Herceptin.
For assay [1], the system named is RAJI and L363 target cells. Briefly: SAR expression and function in T cells with disrupted endogenous TCR chains or with SAR directed to the TRAC locus. Format: cell-based. Particulars: TRAC-targeted T cells, versus construct SEQ ID NO: 23329. From the text: SARs with the backbones of TFPs comprising CD3ε, CD3γ, and CD3δ chains (designated as CD3ε/γ/δ TFPs) have poor expression and activity when expressed in αβ T cells that lack or have impaired functional endogenous or native TCRα or TCRβ chain polypeptide on their surface. For example, SARS represented by SEQ ID NO: 4110-4112 have impaired expression and activity (e.g., T cell activation, proliferation, cytokine production and cytotoxicity etc.) in αβ T cell in which the endogenous TRAC genomic locus has been disrupted. The disclosure provides a solution to this problem by re-expressing a TCRα constant chain (TRAC chain) polypeptide or a fragment thereof in T cells in which the expression of native full length TCRα chain polypeptide has been reduced or eliminated as described in WO2019067805, which is incorporated in its entirety by reference herein. In an exemplary embodiment, the expression and signaling activity of SARs based on CD3ε/γ/δ backbone can be restored in αβ T cells in which the expression of native TCRα chain is reduced or eliminated by expressing into such T cells a nucleic acid construct encoding an exogenous TCRα constant chain (TRAC chain) (e.g., SEQ ID NO (DNA): 1045 and SEQ ID NO (PRT): 11735) or a fragment thereof. […]

For another assay, the system named is target cell lines. As to the kind of experiment: Assay for cytokine production (ELISA). Particulars: TRAC-targeted T cells, versus construct SEQ ID NO: 23329. Format: cell-based. As to the method: (B) Assay for cytokine production: The control vector- and SAR-expressing Jurkat-NFAT-GFP or T cells are cocultured with the target cell lines for 4-96 hours and supernatant examined for induction of cytokines (e.g., IL2, IFNγ, TNFα etc.) expresson using ELISA.
On the technique in general: An ELISA detects its analyte on a solid surface through an enzyme-linked reagent.

B1: SEQ ID NO: 22248: Herceptin mimotag tagged SAR (protein)
chain: MALPVTALLLPLALLLHAARPDIQMTQSPSSLSASVGDRVTITCKASDHINNWLAWYQQKPGQAPKLLIYGATTLETGVPSRFSGSGSGTDYTLTISSLQPEDFATYYCQQSWNTPWTFGQGTKLEIKRLEDLKNVFPPEVAVFEPSEAEISHTQKATLVCLATGFYPDHVELSWWVNGKEVHSGVCTDPQPLKEQPALNDSRYCLSSRLRVSATFWQNPRNHFRCQVQFYGLSENDEWTQDRAKPVTQIVSAEAWGRADCGFTSESYQQGVLSATILYEILLGKATLYAVLVSALVLMAMVKRKDSRGRAKRSGSGATNFSLLKQAGDVEENPGPTSATMDWIWRILFLVGAATGAHSGPQLGPYELWELSHGSGPLGIAGIFEQVQLQQPGAELVKPGASVKMSCKASGYAFSSYWINWMKQKPGQGLEWIGQIYPGDGDTNYNGKFKGRATLTADTSSSTAYMQLSSLTSEDSAVYFCARSITTVVGCAMDYWGQGTSVTVSSTRIQNPDPAVYQLRDSKSSDKSVCLFTDFDSQTNVSQSKDSDVYITDKCVLDMRSMDFKSNSAVAWSNKSDFACANAFNNSIIPEDTFFPSPESSCDVKLVEKSFETDTNLNFQNLSVIGFRILLLKVAGFNLLMTLRLWSSRAKRSGSGVKQTLNFDLLKLAGDVESNPGPSRGHMTEYKPTVRLATRDDVPRAVRTLAAAFADYPATRHTVDPDRHIERVTELQELFLTRVGLDIGKVWVADDGAAVAVWTTPESVEAGAVFAEIGPRMAELSGSRLAAQQQMEGLLAPHRPKEPAWFLATVGVSPDHQGKGLGSAVVLPGVEAAERAGVPAFLETSAPRNLPFYERLGFTVTADVEVPEGPRTWCMTRKPGA
modifications: Herceptin mimotag
notes: Herceptin mimotag tagged SAR
Take B1: the “binding to Herceptin” value with Herceptin is “showed binding to Herceptin”.

B2: SEQ ID NO: 23330: targeting construct coexpressing a TCRα constant chain with a SAR on TFP backbone targeting BCMA and CD22, directed to the TRAC locus (protein)
chain: FKIPIEELEDRVFVNCNTSITWVEGTVGTLLSDITRLDLGKRILDPRGIYRCNGTDIYKDKESTVQVHYRMCQSCVELDPATVA
With B2, in assay [1], the activation entry is listed as “greater” and the proliferation entry is listed as “greater”. The “cytokine (e.g., IL2 and TNFα) production” value in the assay with target cell lines is on record as “greater”.

These data come from patent publication US20230212319A1, “NOVEL ANTIGEN BINDING DOMAINS AND SYNTHETIC ANTIGEN RECEPTORS INCORPORATING THE SAME” (University of Southern California, priority 2020, published 2023).
